Three molecules from US20130101602A1 (ARGOS THERAPEUTICS, published 2013) can be followed below.

Amino acid sequences for entries named in this document (tags omitted). Residues count along the entry.
UniProt P01570, 24-189: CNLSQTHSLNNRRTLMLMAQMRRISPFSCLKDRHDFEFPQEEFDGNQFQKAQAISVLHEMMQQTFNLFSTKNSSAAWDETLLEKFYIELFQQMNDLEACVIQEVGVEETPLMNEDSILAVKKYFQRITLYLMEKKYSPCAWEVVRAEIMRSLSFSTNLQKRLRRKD
UniProt P05015, 24-189: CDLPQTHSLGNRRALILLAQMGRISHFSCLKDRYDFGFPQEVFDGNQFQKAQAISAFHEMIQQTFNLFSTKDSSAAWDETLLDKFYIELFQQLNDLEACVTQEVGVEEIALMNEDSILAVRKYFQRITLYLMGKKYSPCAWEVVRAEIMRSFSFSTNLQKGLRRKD
UniProt P05014, 24-189 A74T/E137V: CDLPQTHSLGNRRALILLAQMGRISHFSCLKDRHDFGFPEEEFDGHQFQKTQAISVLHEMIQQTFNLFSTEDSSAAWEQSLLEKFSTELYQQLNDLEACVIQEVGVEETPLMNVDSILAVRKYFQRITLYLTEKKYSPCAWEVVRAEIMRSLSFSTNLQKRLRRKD
UniProt P05013, 24-189: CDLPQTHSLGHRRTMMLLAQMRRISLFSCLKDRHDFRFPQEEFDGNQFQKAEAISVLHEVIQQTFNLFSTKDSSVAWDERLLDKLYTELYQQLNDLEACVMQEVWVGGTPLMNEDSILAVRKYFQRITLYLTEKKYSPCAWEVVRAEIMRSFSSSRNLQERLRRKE

Assay [1] concerns the target T1, recombinant human IFN-αB2 (human, UniProt P32881 24-189). The assay can be described thus: cell-based or functional assay.
Assay [2] deals with T2, recombinant human IFN-αH2 (human, UniProt P01570 24-189).
T2 construct: also called hIFN-αH2
The assay can be described thus: SPR (Biacore) dissociation comparison, mAb immobilised, IFN-α injected.

The target in assay [3] is T3, recombinant human IFN-αWA (human, UniProt P05015 24-189).
T3 construct: also called hIFN-αWA
The assay is described as above.

Assay [4] has as its target T4, recombinant human IFN-α4b (human, UniProt P05014 24-189).
T4 construct: 4a and 4b are allelic forms of IFNA4; also called hIFN-α4b
Described as above.

Another assay concerns the target T5, recombinant human IFN-αK (human, UniProt P05013 24-189).
T5 construct: also called hIFN-αK
The assay is described as above.

The target of assay [5] is T1, recombinant human IFN-αB2. The assay can be described thus: cell-based or functional assay. The source holds these as a separate data set.

B1: ACO-1 (murine anti-IFN-α antibody, recombinant) (antibody, V domains shown)
VH: QVQLQQPGAELVKPGASVKLSCKASGYTFTNYWMHWVKQRPGQGLEWIGEINPSHGRTIYNENFKSKATLTVDKSSITAFMQLSSLTSEDSAVYFCARGGLGPAWFAYWGQGTLVTVSA
VL: QIVLTQSPAIMSASPGEKVTLTCSAGSSVDSSYLYWYQQKPGSSPKLWIYSTSNLASGVPARFSGSGSGTSYSLTISSMEAEDAASYFCHQWSSYPFTFGSGTKLEIKR
With B1, in assay [1], the “IC50 value relative to hzACO-1 (RG assay)” value stood at 0.47.

B2: hzACO-1-kabat CDRH2 (antibody, V domains shown)
VH: QVQLVQSGAEVKKPGASVKVSCKASGYTFTNYWMHWVRQAPGQGLEWMGEINPSHGRTIYNENFKSRVTMTRDTSTSTVYMELSSLRSEDTAVYYCARGGLGPAWFAYWGQGTLVTVSS
VL: EIVLTQSPATLSLSPGERATLSCSAGSSVDSSYLYWYQQKPGQAPRLLIYSTSNLASGIPARFSGSGSGTDFTLTISSLEPEDFAVYYCHQWSSYPFTFGQGTKLEIK
notes: The five single changes were worked out by comparing the two CDRs; Human IgG4(S241P)/kappa; also called traditionally CDR grafted humanized ACO-1
Broadly, the koff is the rate constant with which the complex falls apart. Regarding B2, the koff in assay [2] was found to be 0.000328 s⁻¹; in assay [3], 0.000366 s⁻¹; in assay [4], 0.000155 s⁻¹; with recombinant human IFN-αK, 0.000341 s⁻¹. In addition, in assay [1], the “IC50 value relative to hzACO-1 (RG assay)” value was 0.88.

B3: hzACO-1 (humanized ACO-1) (antibody, human IgG4, V domains shown)
VH: QVQLVQSGAEVKKPGASVKVSCKASGYTFTNYWMHWVRQAPGQGLEWMGEINPSHGRTIYAQKFQGRVTMTRDTSTSTVYMELSSLRSEDTAVYYCARGGLGPAWFAYWGQGTLVTVSS
VL: EIVLTQSPATLSLSPGERATLSCSAGSSVDSSYLYWYQQKPGQAPRLLIYSTSNLASGIPARFSGSGSGTDFTLTISSLEPEDFAVYYCHQWSSYPFTFGQGTKLEIKR
notes: also called hzACO-1 IgG4; hzACO-1-IgG4
B3: the “IC50 (read off the curve) (reporter gene assay)” value in assay [5] is roughly 0.1 mg/L.
